This is an account of results in patent US9290476B2, “Methylene linked quinolinyl modulators of RORγt” (Janssen Pharmaceutica NV, priority 2012, dated 2016).

Chains of the proteins cited; added tags and fusions are not shown. A line that says so, or that is headed by a name, gives the form on record, which may keep a tag or linker. Residues count along the entry.
UniProt P51449, other isoform, or with tags, fused parts or gaps: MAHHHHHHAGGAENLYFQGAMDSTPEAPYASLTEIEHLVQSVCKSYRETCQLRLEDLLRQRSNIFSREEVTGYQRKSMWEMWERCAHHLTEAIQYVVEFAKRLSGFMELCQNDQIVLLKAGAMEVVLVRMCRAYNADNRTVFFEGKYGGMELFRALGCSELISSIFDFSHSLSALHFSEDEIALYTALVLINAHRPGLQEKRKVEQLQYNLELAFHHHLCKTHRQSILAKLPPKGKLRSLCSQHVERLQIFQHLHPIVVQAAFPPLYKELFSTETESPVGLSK
UniProt P51449, 258-518: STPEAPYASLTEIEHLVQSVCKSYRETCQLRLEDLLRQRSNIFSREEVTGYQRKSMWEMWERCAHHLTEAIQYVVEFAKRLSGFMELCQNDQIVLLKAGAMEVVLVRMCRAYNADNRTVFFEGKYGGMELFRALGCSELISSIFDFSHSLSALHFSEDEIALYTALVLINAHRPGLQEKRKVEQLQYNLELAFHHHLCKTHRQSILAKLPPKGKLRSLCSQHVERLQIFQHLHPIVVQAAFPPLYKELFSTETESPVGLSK

Values joined by “and” are separate entries in the source; they are usually repeats but may differ in a detail not shown here. Identical values can stand only once.

Assay [1] concerns the target human RORγt ligand binding domain (RORγt LBD) (Homo sapiens (Human), UniProt P51449). The assay can be described thus: RORγt ThermoFluor assay (thermal shift binding affinity). Conditions: estimated from thermal shift.
The target in a further assay is human RORγt LBD (Homo sapiens (Human), UniProt P51449). Description: RORγt reporter assay (GAL4-RORγt LBD luciferase in HEK293T cells). It is filed as cell-based. The conditions noted are these: 24 hours compound treatment. An excerpt:
A reporter assay was used to test functional activity of RORγt modulatory compounds on transcriptional activation driven by the RORγt LBD. Cells used in the assay were co-transfected with two constructs. The first construct, pBIND-RORγt LBD, contained the wild type human RORγt LBD fused to the DNA binding domain of the GAL4 protein. The second construct, pGL4.31 (Promega Cat no. C935A), contained multiple GAL4 responsive DNA elements upstream of firefly luciferase. […] The mutant construct was called pBIND-RORγt-AF2.
The pBIND vector contains the GAL4 DNA Binding Domain (GAL4 DBD) and the renilla luciferase gene under control of the SV40 promoter. Renilla luciferase expression serves as a control for transfection efficiency and cell viability.
The reporter assay was performed by transiently transfecting HEK293T cells with 5 ng of pBIND-RORγt LBD or pBIND-RORγt LBD-AF2 and 5 μg pGL4.31 (Promega Cat no. C935A) using Fugene 6 ([…] Cat no. E2691) at a 1:6 ratio of DNA: Fugene 6 in a T-75 flask in which cells were at least 80% confluent. Twenty four hours after bulk transfection, cells were plated into 96-well plates at 50,000 cells/well in phenol-red free DMEM containing 5% Lipid Reduced FCS and Pen/Strep. Six hours after plating, cells were treated with compounds for 24 hours. Media was removed and cells were lysed with 50 μL 1× Glo Lysis Buffer (Promega). Dual Glo Luciferase Reagent (50 μL/well) was then added and firefly luciferase luminescence was read on an Envision after a ten minute incubation. Finally, Stop and Glo reagent (50 μL/well) was added and renilla luciferase luminescence was read on an Envision after a ten minute incubation. To calculate the effect of compounds on RORγt activity, the ratio of firefly to renilla luciferase was determined and plotted against compound concentration. Agonist compounds increase RORγt-driven luciferase expression, and antagonist or inverse agonist compounds decrease luciferase expression.
A general note: A reporter such as luciferase makes a cellular process visible.

By Kd is commonly meant the concentration at which binding is half-saturated. For orientation: IC50 means the concentration that inhibits the measured activity by half. A lower IC50 goes with inhibition by little substance. On to `CCc1nc2ccc(C(O)(c3cnnn3C)C3CN(S(C)(=O)=O)C3)cc2c(Cl)c1Cc1ccc(C(F)(F)F)cc1` (single isomer, unassigned) [Example 91C, (4-Chloro-2-ethyl-3-(4-(trifluoromethyl)benzyl)quinolin-6-yl)(1-methyl-1H-1,2,3-triazol-5-yl)(1-(methylsulfonyl)azetidin-3-yl)methanol], for which the Kd in assay [1] is 0.23 nM. In addition, on human RORγt LBD, the IC50 is ~0.006 µM.

For the molecule `CCc1nc2ccc(C(O)(c3cnnn3C)C3CN(S(C)(=O)=O)C3)cc2c(Cl)c1Cc1ccc(C(F)(F)F)cc1` (stereo not drawn) [Example 91A, (4-Chloro-2-ethyl-3-(4-(trifluoromethyl)benzyl)quinolin-6-yl)(1-methyl-1H-1,2,3-triazol-5-yl)(1-(methylsulfonyl)azetidin-3-yl)methanol], in assay [1], the Kd is 0.25 nM. This molecule returned an IC50 at human RORγt LBD of 0.0022 µM. `COc1nc2ccc(C(O)(c3ccc(C)nc3C)c3cnnn3C)cc2c(C#N)c1Cc1ccc(C(F)(F)F)cc1` (single isomer, unassigned) [Example 78C, 6-((2,6-Dimethylpyridin-3-yl)(hydroxy)(1-methyl-1H-1,2,3-triazol-5-yl)methyl)-2-methoxy-3-(4-(trifluoromethyl)benzyl)quinoline-4-carbonitrile] came in with an IC50 at human RORγt LBD of 0.0017 µM.

`COc1nc2ccc(C(O)(c3cnnn3C)c3cnc(C)n3C)cc2c(Cl)c1Cc1ccc(C(F)(F)F)cc1` (single isomer, unassigned) [Example 80C, (4-chloro-2-methoxy-3-(4-(trifluoromethyl)benzyl)quinolin-6-yl)(1,2-dimethyl-1H-imidazol-5-yl)(1-methyl-1H-1,2,3-triazol-5-yl)methanol]: the Kd in assay [1] is 0.026 nM. Regarding `CCc1nc2ccc(C(O)(c3cnnn3C)C3CN(S(C)(=O)=O)C3)cc2c(Cl)c1Cc1ccc(C(F)(F)F)cc1` (single isomer, unassigned) [Example 91B, (4-Chloro-2-ethyl-3-(4-(trifluoromethyl)benzyl)quinolin-6-yl)(1-methyl-1H-1,2,3-triazol-5-yl)(1-(methylsulfonyl)azetidin-3-yl)methanol], half-maximal inhibition against human RORγt LBD (IC50) was put at 0.029 µM. In other words, the double-digit nanomolar range. `COc1nc2ccc(C(O)(c3ccc(C)nc3C)c3cnnn3C)cc2c(C#N)c1Cc1ccc(C(F)(F)F)cc1` (single isomer, unassigned) [Example 78B, 6-((2,6-Dimethylpyridin-3-yl)(hydroxy)(1-methyl-1H-1,2,3-triazol-5-yl)methyl)-2-methoxy-3-(4-(trifluoromethyl)benzyl)quinoline-4-carbonitrile]: the Kd in assay [1] was 120 nM. The molecule further showed a half-inhibitory concentration (IC50) on human RORγt LBD of 0.15 µM.

With `COc1nc2ccc(C(O)(c3cnnn3C)c3cnc(C)n3C)cc2c(Cl)c1Cc1ccc(C(F)(F)F)cc1` (single isomer, unassigned) [Example 80B, (4-chloro-2-methoxy-3-(4-(trifluoromethyl)benzyl)quinolin-6-yl)(1,2-dimethyl-1H-imidazol-5-yl)(1-methyl-1H-1,2,3-triazol-5-yl)methanol], the IC50 on human RORγt LBD was 0.003 µM and ~0.004 µM.

For `Cn1cncc1C(O)(c1ccc(C(F)(F)F)nc1)c1ccc2nc(C#N)c(Cc3ccc(-n4cccn4)cc3)c(C#N)c2c1` (stereo not drawn) [Example 72B, 3-(4-(1H-Pyrazol-1-yl)benzyl)-6-(hydroxy(1-methyl-1H-imidazol-5-yl)(6-(trifluoromethyl)pyridin-3-yl)methyl)quinoline-2,4-dicarbonitrile], in assay [1], the Kd was 0.71 nM. Further, half-maximal inhibition at human RORγt LBD (IC50) was put at 0.031 µM.

At human RORγt LBD, `Cn1cncc1C(O)(c1ccc(C(F)(F)F)nc1)c1ccc2nc(C#N)c(Cc3ccc(-n4cccn4)cc3)c(C#N)c2c1` (single isomer, unassigned) [Example 72C, 3-(4-(1H-Pyrazol-1-yl)benzyl)-6-(hydroxy(1-methyl-1H-imidazol-5-yl)(6-(trifluoromethyl)pyridin-3-yl)methyl)quinoline-2,4-dicarbonitrile] yielded an IC50 of 0.047 µM. On human RORγt LBD, `COc1nc2ccc(C(O)(c3ccc(C)nc3C)c3cnnn3C)cc2c(C#N)c1Cc1ccc(C(F)(F)F)cc1` (stereo not drawn) [Example 78A, 6-((2,6-Dimethylpyridin-3-yl)(hydroxy)(1-methyl-1H-1,2,3-triazol-5-yl)methyl)-2-methoxy-3-(4-(trifluoromethyl)benzyl)quinoline-4-carbonitrile] registered an IC50 of 0.011 µM.

`COc1nc2ccc(C(O)(c3cnnn3C)c3cnc(C)n3C)cc2c(Cl)c1Cc1ccc(C(F)(F)F)cc1` (stereo not drawn) [Example 80A, (4-Chloro-2-methoxy-3-(4-(trifluoromethyl)benzyl)quinolin-6-yl)(1,2-dimethyl-1H-imidazol-5-yl)(1-methyl-1H-1,2,3-triazol-5-yl)methanol]: the midpoint of inhibition against human RORγt LBD, the IC50, lay at 0.011 µM. In other words, the double-digit nanomolar range.
